For data set [1] the following is noted: normal patients; cited from earlier work.
The nature of data set [2]: Biodistribution in normal mice after intravenous injection (renal uptake). The data set is classed as in vivo. As to the method: Tc-99m-MAGGG was administered simultaneously with I-131 OIH (as a reference standard) to six mice in two groups. Each mouse was injected intravenously with 0.1 milliliters of a preparation containing 0.5 microcuries of Tc-99m-MAGGG and 0.2 microcuries of I-131 OIH, and then placed into a metabolic cage capable of collecting excreted urine.
Ten minutes after injection, each mouse's urethra was ligated and the mouse was sacrificed by chloroform vapor; various samples were then taken to determine biodistribution of radiolabeled material. The results of these samples are shown in Table I. Similar measurements, shown in Table II, were taken on the second group of mice 120 minutes after injection.

As to “Tc-99m-N,N'-bis(mercaptoacetyl)-ethylenediamine [Tc-99M-DADS]”, the tubular extraction efficiency result in data set [1] is on record as “about 53%”.

Consider “Tc-99m-mercaptoacetylglycylglycylaspartic acid [Tc-99m-MAGG-Aspartic Acid]”, for which the “level in the urine relative to corresponding level of I-131 OIH” value in data set [2] (10 minutes) stood at 64.2%. Besides, in data set [2] (10 minutes after injection), the Blood is 6.6 percentage of radioactive agen, the Intestine is reported as 2.7 percentage of radioactive agen, the Kidneys is on record as 4.7 percentage of radioactive agen and the Liver is given as 6.51 percentage of radioactive agen. Moreover, in data set [2] (10 minutes after injection), the Stomach entry is reported as “.4 percentage of radioactive agen” and the Urine was 50.1 percentage of radioactive agen. In addition, the “level in the urine relative to corresponding level of I-131 OIH” value in data set [2] (120 minutes) was determined as 94.1%. In data set [2] (120 minutes after injection), the Blood result was “.3 percentage of radioactive agen”, the Intestine was 6.2 percentage of radioactive agen, the Kidneys entry was “.2 percentage of radioactive agen” and the Liver is given as 1.5 percentage of radioactive agen. Besides, in data set [2] (120 minutes after injection), the Stomach entry is given as “.3 percentage of radioactive agen” and the Urine is listed as 87.4 percentage of radioactive agen.

The record behind these values is patent US5573748A, “Radiolabeled technetium chelates for use in renal function determinations” (University of Utah Research Foundation, priority 1994, dated 1996).
